Protein sequences, listed by entry. Tags and fused reporters are not part of them.
UniProt C3SWJ7, whole entry: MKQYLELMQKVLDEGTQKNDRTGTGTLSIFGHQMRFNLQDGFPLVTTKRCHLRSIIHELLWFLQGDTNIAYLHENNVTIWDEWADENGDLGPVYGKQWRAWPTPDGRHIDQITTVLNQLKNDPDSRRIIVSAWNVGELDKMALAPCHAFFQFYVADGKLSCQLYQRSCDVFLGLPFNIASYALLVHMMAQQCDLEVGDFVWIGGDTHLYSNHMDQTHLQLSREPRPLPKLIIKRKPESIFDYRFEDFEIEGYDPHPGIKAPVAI

According to ChEMBL document CHEMBL1134503, “Synthesis, antifolate, and antitumor activities of classical and nonclassical 2-amino-4-oxo-5-substituted-pyrrolo[2,3-d]pyrimidines” (J Med Chem, 2001):

Key:
[1] = target: T1, Bifunctional dihydrofolate reductase-thymidylate synthase (Toxoplasma gondii, UniProt Q07422); test: Inhibitory activity against Toxoplasma gondii dihydrofolate reductase
T1 sequence (Q07422 whole entry): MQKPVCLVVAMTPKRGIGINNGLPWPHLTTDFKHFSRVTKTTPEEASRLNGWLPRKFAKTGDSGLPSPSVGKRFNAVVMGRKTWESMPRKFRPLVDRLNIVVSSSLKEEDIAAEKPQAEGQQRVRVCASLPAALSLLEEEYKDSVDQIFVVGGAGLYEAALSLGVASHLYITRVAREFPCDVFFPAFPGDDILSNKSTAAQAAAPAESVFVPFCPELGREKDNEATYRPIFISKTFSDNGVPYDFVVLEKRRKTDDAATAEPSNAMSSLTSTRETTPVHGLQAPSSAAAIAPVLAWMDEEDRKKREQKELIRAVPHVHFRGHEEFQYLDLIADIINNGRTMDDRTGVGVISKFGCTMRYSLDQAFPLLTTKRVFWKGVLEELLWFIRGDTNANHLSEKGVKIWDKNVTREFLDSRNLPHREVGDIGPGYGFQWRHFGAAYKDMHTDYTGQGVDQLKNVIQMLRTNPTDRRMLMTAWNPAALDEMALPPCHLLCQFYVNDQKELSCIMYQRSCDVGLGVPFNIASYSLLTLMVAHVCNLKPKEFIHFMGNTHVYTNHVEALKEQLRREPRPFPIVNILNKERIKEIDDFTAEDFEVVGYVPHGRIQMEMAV

Thymidylate synthase = Thymidylate synthase (Escherichia coli, UniProt C3SWJ7); test: Inhibitory activity against Escherichia coli thymidylate synthase

Which IC50 [1] does the source give for `Nc1nc2[nH]cc(CCc3ccc(C(=O)N[C@@H](CCC(=O)O)C(=O)O)cc3)c2c(=O)[nH]1` [PEMETREXED] here?
Its IC50 is 2.3 µM.

What about the IC50 (Thymidylate synthase) of the same compound?
The IC50 was 110 µM.
